The record followed here is ChEMBL document CHEMBL4354825, “Design and Synthesis of Basic Selective Estrogen Receptor Degraders for Endocrine Therapy Resistant Breast Cancer” (J Med Chem, 2019).

For the test, the species on record is Homo sapiens.

Active and inactive are the calls of the source. No cut-off for these calls is given here.

For `Cc1ccccc1C(=O)c1sc2cc(O)ccc2c1Oc1ccc(OCCN2CCCCC2)cc1`, the pIC50 entry is “inactive”.

In the case of `O=C(c1ccc(OCCN2CCCCC2)cc1)c1c(-c2ccc(O)cc2)sc2cc(O)ccc12` [RALOXIFENE], the pIC50 entry was “inactive”.
